# Data: patent publication US11028051B2
# Experiments:
# [1] = tested on: c-Myc expression in HDMB03 cells; assay: c-Myc expression inhibition, high content microscopy (HCM); assay type: cell-based, human; settings: read-out: c-Myc expression EC50
# SEM cells = assay: anti-proliferative activity; settings: read-out: EC50 (μM) SEM; Table 5
# all ~42 bromodomains = assay: BROMOscan competitive binding experiment at a single concentration; settings: 1 μM, FIG. 4
smiles,measurement,setting,value
Cc1sc2c(c1C)C(c1ccc(Cl)cc1)=N[C@@H](CC(=O)OC(C)(C)C)c1nnc(C)n1-2,EC50,[1],20 nM
same,EC50,SEM cells,0.03 µM
same,activity across bromodomain families,all ~42 bromodomains,activity only versus the BET family
